Patent US20250263370A1 (Tay Therapeutics Limited, priority 2022, published 2025)

Tested on: rat anti-collagen IgG1 antibodies
Assay: Rat anti-collagen IgG1 antibodies in serum of CIA rats at day 21
Format: in vivo, Lewis rat
Conditions: Group 3 (CIA + Dexamethasone), day 21, per animal

## C[C@@H]1C[C@H]2[C@@H]3CCC4=CC(=O)C=C[C@]4(C)[C@@]3(F)[C@@H](O)C[C@]2(C)[C@@]1(O)C(=O)CO [dexamethasone]
  Final Rat Anti-Collagen IgG1 Antibody Con.: 11736.83 units/ml
